The source of these data is ChEMBL document CHEMBL1156543, “Identification of N-(4-piperidinyl)-4-(2,6-dichlorobenzoylamino)-1H-pyrazole-3-carboxamide (AT7519), a novel cyclin dependent kinase inhibitor using fragment-based X-ray crystallography and structure based drug design” (J Med Chem, 2008).

The chains behind the UniProt entries cited, without tags or fusion partners.
UniProt P06493, whole entry: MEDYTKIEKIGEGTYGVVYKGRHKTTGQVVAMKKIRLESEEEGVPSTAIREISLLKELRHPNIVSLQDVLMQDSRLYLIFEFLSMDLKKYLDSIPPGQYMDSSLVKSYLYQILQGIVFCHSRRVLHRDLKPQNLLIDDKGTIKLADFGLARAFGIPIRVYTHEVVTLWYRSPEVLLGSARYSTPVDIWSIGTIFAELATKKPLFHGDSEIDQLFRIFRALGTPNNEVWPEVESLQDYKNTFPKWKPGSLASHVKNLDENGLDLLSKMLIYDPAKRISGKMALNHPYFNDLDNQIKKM

Assay [1] deals with Cyclin-dependent kinase 2 (Homo sapiens, UniProt P24941).
Assay [2] has as its target Cyclin-dependent kinase 1/cyclin B1 (Homo sapiens, UniProt P06493).

pIC50: −log10 of the molar value.

For `NS(=O)(=O)c1ccc(NC(=O)c2n[nH]c3ccccc23)cc1`, in assay [1], the pIC50 (in general, −log10 of the IC50, conventionally taken in molar units) is 6.18.

For `CC(C)Nc1cc(Cl)nc2c(C#N)cnn12`, the pIC50 in assay [1] is 5.82.

As to `O=C(NC1CCNCC1)c1n[nH]cc1NC(=O)c1c(F)cccc1F`, in assay [2], the pIC50 was 6.01.

Compound `O=C(Nc1ccccc1)c1cc[nH]n1` had a pIC50 in assay [1] of 4.01.
